Measurements from US8034940B2, “Modulators of glucocorticoid receptor, AP-1, and/or NF-κB activity and use thereof” (Bristol-Myers Squibb Company, priority 2006, dated 2011).

Sequences of proteins named here, by UniProt entry; tags and fusion partners are left off.
UniProt P04150, whole entry: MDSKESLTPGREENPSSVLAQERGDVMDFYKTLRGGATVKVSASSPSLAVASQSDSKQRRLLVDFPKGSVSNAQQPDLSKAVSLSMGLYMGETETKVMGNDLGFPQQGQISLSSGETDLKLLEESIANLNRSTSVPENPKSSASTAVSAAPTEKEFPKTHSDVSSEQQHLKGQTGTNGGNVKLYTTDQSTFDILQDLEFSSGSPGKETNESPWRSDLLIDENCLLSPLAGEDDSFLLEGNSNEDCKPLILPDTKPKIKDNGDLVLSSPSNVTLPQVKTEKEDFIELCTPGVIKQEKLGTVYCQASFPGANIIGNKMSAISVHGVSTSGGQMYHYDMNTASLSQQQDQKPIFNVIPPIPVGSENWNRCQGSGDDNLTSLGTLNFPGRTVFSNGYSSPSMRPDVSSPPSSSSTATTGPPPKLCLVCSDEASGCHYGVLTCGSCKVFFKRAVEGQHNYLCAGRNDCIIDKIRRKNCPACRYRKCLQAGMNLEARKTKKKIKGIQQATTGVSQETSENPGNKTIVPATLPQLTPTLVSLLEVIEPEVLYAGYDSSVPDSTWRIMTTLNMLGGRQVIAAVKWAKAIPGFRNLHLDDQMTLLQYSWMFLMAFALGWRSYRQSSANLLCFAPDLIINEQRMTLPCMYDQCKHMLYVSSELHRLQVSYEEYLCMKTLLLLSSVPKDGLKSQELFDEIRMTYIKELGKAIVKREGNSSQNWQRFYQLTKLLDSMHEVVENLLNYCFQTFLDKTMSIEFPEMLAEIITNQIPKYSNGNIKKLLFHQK

Key:
[1] = target: T1, human full-length glucocorticoid receptor (Homo sapiens, UniProt P04150); assay: Glucocorticoid Receptor Binding Assay (I), fluorescence polarization, Fluormone GS Red; settings: read-out: GR (Ki, nM) (GR Binding Assay (I))
[2] = target: T1, human full-length glucocorticoid receptor; assay: Glucocorticoid Receptor Binding Assay (II), fluorescence polarization, FITC-dexamethasone; settings: read-out: GR (Ki, nM) (GR Binding Assay (II))

Compound | Ki [1] | Ki [2]
CCCC(=O)Nc1ccc2c(n1)Oc1ccccc1[C@@H]2C(C)(C)C(=O)Nc1nncs1 | 7.58 nM | 
COc1ccc2c(n1)Oc1ccccc1C2C(C)(C)C(=O)Nc1nncs1 (centres unmarked) | 56.1 nM | 
CC(C)(C(=O)Nc1nncs1)[C@H]1c2ccccc2Oc2nc(-c3ccc(C(=O)N4CCC[C@H]4CO)cc3)ccc21 | 9.56 nM | 
CN(Cc1ccccc1)c1ccc2c(n1)Oc1ccccc1C2C(C)(C)C(=O)Nc1nccs1 (centres unmarked) |  | 80.9 nM
CCCC#Cc1ccc2c(n1)Oc1ccccc1[C@@H]2C(C)(C)C(=O)Nc1nncs1 | 4 nM | 
